# AlphaSeq binding of Ab-91 heavy chain variants to a spike HR2 peptide

Reference: Engelhart et al. 2022, doi:10.1038/s41597-022-01779-4. File: FLAb, binding data.

Antigen: PDVDLGDISGINAS, a 14-residue peptide of the SARS-CoV-2 spike HR2 region.

Parent scFv Ab-91: VL joined to VH by a 15-residue (Gly4Ser)3 linker. Changes lie in the heavy chain CDRs alone.
VL: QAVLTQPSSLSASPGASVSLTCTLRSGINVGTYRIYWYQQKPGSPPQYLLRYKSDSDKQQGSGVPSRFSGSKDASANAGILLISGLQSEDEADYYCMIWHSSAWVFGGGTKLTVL
VH: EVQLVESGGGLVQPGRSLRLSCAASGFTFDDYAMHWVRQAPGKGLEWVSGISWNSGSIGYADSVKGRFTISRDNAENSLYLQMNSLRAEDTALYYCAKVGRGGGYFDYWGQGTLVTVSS

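The starting antibody came from a phage panning campaign against this peptide. The library (AAYL51) carries one to three amino acid substitutions per variant, with no insertions or deletions. Affinity was read by AlphaSeq, a pooled yeast mating assay with surface-displayed partners. Mating (16 h, 30 °C) was followed by selection of diploids and sequencing of their barcodes. Each replicate has its own calibration line, from reference interactions of the BCL2 family. The assay was run in three technical replicates.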

Variants are written as CDR1, CDR2 and CDR3 of the heavy chain (limits as in the source). Parent: GFTFDDYAMH, GISWNSGSIGYADSVK, VGRGGGYFDY. This list gathers variants with a substitution at G26 (VH, numbered from residue 1). Each Kd is an estimate from the mating assay, the geometric mean of the replicates in which the pair was seen; lower is stronger. An entry "not detected" has no value in the source: the pair was not observed among the diploids in any replicate. This suggests poor binding but is not conclusive. Three control strains display no target. For library AAYL51, 21% of the pairings with them gave a signal, with a median of 34 µM and one signal in twenty below 1.8 µM, so weak values seen in few replicates may be background.

CDR-H1	CDR-H2	CDR-H3	Kd	replicates with signal
QFTFDSYAMH	GISWNSGSIGYADSVK	VGRGGGYPDY	62 µM	3 of 3
PFTFDDYAMH	GISWNSGSIGYADSVK	VGRGGKYFDY	not detected	0 of 3
SFTFDDYAMH	GISWNSGSIDDADSVK	VGRGGGYFDY	not detected	0 of 3
AFTFDDYWMH	GISTNSGSIGYADSVK	VGRGGGYFDY	4.7 µM	2 of 3
RFTFDDYAMH	GISWNSGIIGYADHVK	VGRGGGYFDY	520 µM	1 of 3
FFTFDDYAMH	GIAWNSGSIGYADSVK	VFRGGGYFDY	1.2 mM	1 of 3
SFTFDDYAMH	GISWNSGSIGYADGVK	RGRGGGYFDY	25 µM	2 of 3
RFQFDDYAMI	GISWNSGSIGYADSVK	VGRGGGYFDY	not detected	0 of 3
DFTFDDYAMH	GISWNSGSIGYTASVK	VGRGGGYFDY	not detected	0 of 3
YFTFDDYEMH	GISWNCGSIGYADSVK	VGRGGGYFDY	28 µM	3 of 3
WFTFDDYAMH	GISWNSGSISYAMSVK	VGRGGGYFDY	not detected	0 of 3
AFTFDDYAMH	GCSWNSGSIGYADSVK	VWRGGGYFDY	not detected	0 of 3
QFTFDDYAMH	GISWNSGSITYAHSVK	VGRGGGYFDY	not detected	0 of 3
AFTFDDCAMH	GISWNSGSIGCADSVK	VGRGGGYFDY	not detected	0 of 3
TFTFADYAMH	GISWNSGSIIYADSVK	VGRGGGYFDY	not detected	0 of 3
TFTFDDYAMH	GIWWNSGSIGYADSVK	VGRGGGYEDY	31 µM	2 of 3
AFTFDDYAMH	GISWNSGSIGYADSVK	KGRGGPYFDY	not detected	0 of 3
FFTFDDYAMH	GISWVPGSIGYADSVK	VGRGGGYFDY	not detected	0 of 3
CFTFDDYAMH	GISWNSGSIGKADSVK	VGRGGGYADY	not detected	0 of 3
VFTFDDYAMH	GISPNSGSILYADSVK	VGRGGGYFDY	12 µM	2 of 3
EWTFDDYAMH	GISWNSGSIGYADSVK	VGRGGGYFDY	700 µM	1 of 3
FFTFDDYTMH	GISWNSGSIGYADSVK	VGRGGGYYDY	not detected	0 of 3
DFTFDDYAMH	GISWNSGSIGTADSVG	VGRGGGYFDY	not detected	0 of 3
WFTFDDYAMH	GIEWNSGSIGYAHSVK	VGRGGGYFDY	61 µM	1 of 3
QFTFDDYAMH	MISWNSGFIGYADSVK	VGRGGGYFDY	210 nM	1 of 3
HFTFDDYAMH	GIPWNSGSIGYADSVK	VGKGGGYFDY	not detected	0 of 3
RFTFDDYAMH	GISWNSGSIGYADSGK	VGMGGGYFDY	310 µM	1 of 3
DFTFDDYAMH	GISWNSGSIGYADSTV	VGRGGGYFDY	24 µM	2 of 3
HFTFDDYAMH	GISWNSGPIGYADSVK	VGRIGGYFDY	130 µM	3 of 3
AFTFDDYAMH	GISWNSGSIPYADSVK	VGRGGGYFWY	66 µM	2 of 3
SFTFDDYAMH	GISWNSGSIGYAPSVK	VGRGGGYFDY	140 µM	3 of 3
HFTFDDYAMH	GISWNSGSIGYADSVK	VGRHGGYFEY	not detected	0 of 3
LFTFCDYAMH	GISWNSGSIGYLDSVK	VGRGGGYFDY	5.9 µM	1 of 3
KFTFDCYAMH	GISWNTGSIGYADSVK	VGRGGGYFDY	75 µM	1 of 3
CFTFDDYAMH	GISWNSGSIGYADSVK	VGRGGGYFDY	48 nM	3 of 3
IYTFDDYAMH	GISWNSGSIGYSDSVK	VGRGGGYFDY	24 µM	1 of 3
PFTFDDYAMH	GISWNSGTIGYADSVL	VGRGGGYFDY	25 µM	3 of 3
RFTFDKYAMH	GYSWNSGSIGYADSVK	VGRGGGYFDY	44 µM	1 of 3
KFTFDAYAMH	RISWNSGSIGYADSVK	VGRGGGYFDY	360 µM	2 of 3
IFTFDDYAMH	GISWNSGSIGYADSVK	VGRGGGYFDY	not detected	0 of 3
FFTFQDYAMH	GISWNSGSIGYADSVK	VGRIGGYFDY	61 µM	1 of 3
LLTFDDYAMH	GISWNSGPIGYADSVK	VGRGGGYFDY	not detected	0 of 3
HFTFDDYAMH	GESWNSGSIGYADSVK	VIRGGGYFDY	810 nM	1 of 3
ERTFDDYAMH	GISWNSFSIGYADSVK	VGRGGGYFDY	22 nM	3 of 3
DFTFDDLAMH	GHSWNSGSIGYADSVK	VGRGGGYFDY	480 µM	1 of 3
TFTFDDYAMY	GISWNSGSIGYYDSVK	VGRGGGYFDY	92 µM	1 of 3
VFTFDDYAMT	GISWNSGSIGYADSVK	RGRGGGYFDY	170 µM	3 of 3
RFTFDDYAMH	GISWNSGSIGYPDSVK	VGRYGGYFDY	1.4 mM	3 of 3
RFTFDDYAMH	GIMWNSGSIGYADSVK	VGRGGGYSDY	230 µM	3 of 3
FFTFDDYAMH	GINWNSGSIGYADSVK	VGRGGHYFDY	not detected	0 of 3
DFTFDDYAMH	GISWNSGSIGYADLVK	VGRGGGYFDY	not detected	0 of 3
LFTFDDYAMH	GISWNSGSIGYLDSVK	VGRGGGYFMY	8.8 µM	2 of 3
WFTFLDYAME	GISWNSGSIGYADSVK	VGRGGGYFDY	180 µM	2 of 3
RFTFDDYAMH	GISWNSGIIGYADSVK	MGRGGGYFDY	18 µM	1 of 3
YFTFDDYAMH	GISWNSGSIGYADSVK	VGRGGGYFDA	6.9 nM	3 of 3
DFTFDDYAMH	QISWNSGSIGYADSVK	VGRNGGYFDY	2.9 mM	1 of 3
AFTFDDYAMH	GISWNSGSLGYADSVK	VGRGGGYFDL	330 nM	3 of 3
MFTFDDGAMH	GISWNSGSIGYADSVK	VGDGGGYFDY	not detected	0 of 3
KFTFDDYAME	GISWNSGSIGYADSVK	VGRGGGYFDY	53 µM	2 of 3
VCTDDDYAMH	GISWNSGSIGYADSVK	VGRGGGYFDY	150 nM	3 of 3
EFTFDDYAMH	GISWNSGSILYADSVK	VGRGGEYFDY	5.3 µM	1 of 3
NFTFDDYAMH	GISWNSGKIGYDDSVK	VGRGGGYFDY	not detected	0 of 3
IFTFDDYAMH	GISWNSGSIGYADSGK	VGRGGGYFDY	not detected	0 of 3
PFTFDDYAMH	GISWNSGSIGYADSVK	VGAGGGYKDY	23 µM	1 of 3
FFTFDDFAMH	GISWNSGSIGYADPVK	VGRGGGYFDY	not detected	0 of 3
DFTFDDYAMH	GISWNSGSIGIADSVK	VGRGGGYFDY	not detected	0 of 3
TFTFDDYAMH	GISWNSGSIGYWDSVK	NGRGGGYFDY	380 nM	1 of 3
KFTFDDYAMH	GISWNSGKIGYADSVK	VQRGGGYFDY	83 µM	2 of 3
IFMFDDYAMH	GISWNSGSQGYADSVK	VGRGGGYFDY	not detected	0 of 3
WFTFDDYAMH	GISWNSGGIGYADSVK	VGTGGGYFDY	not detected	0 of 3
PFTFDDYAMH	GISWNSGSIHYADSVK	PGRGGGYFDY	not detected	0 of 3
SFSFDDYAMH	GISWNSGSIGYADSNK	VGRGGGYFDY	27 µM	3 of 3
DFTFDDYAMH	GISWNSGSMGYADSVK	VGRGGGYFDY	9.1 µM	2 of 3
TFHFDDYAMH	GISWNSGSIGYADSVK	KGRGGGYFDY	not detected	0 of 3
NFTFDDYAMH	GISWNSGSIGYADSVK	WGRWGGYFDY	not detected	0 of 3
EFTFDDYAMH	GISWNSGSIGRADSVK	VGRGGGYYDY	not detected	0 of 3
NFTFDDYAMH	SISWNSGSIGYRDSVK	VGRGGGYFDY	not detected	0 of 3